Biological target: MGLL (Macaca mulatta, UniProt H9ESL3)
Assay: PET brain imaging, screening and dose occupancy (blockade) studies in rhesus monkeys

By UniProt entry, the sequences of proteins in these tests, tags left out. Residues count along the entry.
UniProt H9ESL3, 1-303: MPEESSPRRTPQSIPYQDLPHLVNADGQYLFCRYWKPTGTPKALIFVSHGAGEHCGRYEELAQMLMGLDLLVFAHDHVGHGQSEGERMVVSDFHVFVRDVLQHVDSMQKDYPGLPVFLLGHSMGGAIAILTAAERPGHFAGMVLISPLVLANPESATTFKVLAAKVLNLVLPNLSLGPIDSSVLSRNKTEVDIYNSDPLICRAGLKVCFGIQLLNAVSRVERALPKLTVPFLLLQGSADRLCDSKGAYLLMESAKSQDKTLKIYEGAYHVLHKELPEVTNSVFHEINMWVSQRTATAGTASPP

Structure (SMILES): O=C(OC(C(F)(F)F)C(F)(F)F)N1CCN(Cc2ccc(C(F)(F)F)cc2N2CCCC2)CC1
- MGLL enzyme occupancy in brain (0.91 mg/kg i.v., highest dose tested): 100%
- ED50 for blockade of Compound 8F PET signal (brain MGLL occupancy) (i.v. over 5 min, 90 min before radiotracer, average): 0.05 mg/kg
